Test results taken from patent US20260055097A9, “NRF2 PROTEIN DEGRADERS” (Ganymede Oncology, Inc., priority 2022, published 2026).
Like-named read-outs stand apart in the source and are kept apart here.

Protein sequences, listed by entry. Tags and fused reporters are not part of them.
UniProt Q16236, whole entry: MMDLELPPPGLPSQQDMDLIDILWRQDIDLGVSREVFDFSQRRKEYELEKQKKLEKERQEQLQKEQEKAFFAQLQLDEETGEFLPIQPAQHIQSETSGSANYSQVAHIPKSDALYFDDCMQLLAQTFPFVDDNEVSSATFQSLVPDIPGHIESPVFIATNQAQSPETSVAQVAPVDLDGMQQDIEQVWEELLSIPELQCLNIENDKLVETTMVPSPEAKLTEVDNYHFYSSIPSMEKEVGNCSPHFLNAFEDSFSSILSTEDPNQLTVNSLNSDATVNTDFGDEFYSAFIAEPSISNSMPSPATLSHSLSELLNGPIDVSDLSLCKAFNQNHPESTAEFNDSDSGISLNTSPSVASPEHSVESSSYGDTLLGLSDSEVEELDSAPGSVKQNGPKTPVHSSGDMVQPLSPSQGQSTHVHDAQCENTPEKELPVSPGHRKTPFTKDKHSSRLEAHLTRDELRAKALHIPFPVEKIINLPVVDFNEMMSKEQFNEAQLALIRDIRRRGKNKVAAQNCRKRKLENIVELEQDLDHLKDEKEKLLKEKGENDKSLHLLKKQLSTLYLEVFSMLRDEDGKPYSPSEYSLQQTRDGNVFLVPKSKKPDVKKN

Columns and labels:
Nrf2 = Nrf2 (Homo sapiens, UniProt Q16236); assay: Nrf2 degradation in A549 HiBiT-Nrf2 cells, Nano-Glo HiBiT lytic detection (HiBiT readout)
A549 = assay: Cancer cell viability, A549 (CellTiter-Glo); conditions: read-out: Cellular IC50 (μM) A549, A549 cells, 3 days
LK-2 = assay: Cancer cell viability, LK-2 (CellTiter-Glo); conditions: read-out: Cellular IC50 (μM) LK-2, LK-2 cells, 3 days
[1] = read-out: DC50 (nM) at 6 h, 6 h
[2] = read-out: DC50 (nM) at 20 h, 20 h

Structure (SMILES)	DC50 (Nrf2; [1])	DC50 (Nrf2; [2])	IC50 (A549)	IC50 (LK-2)
Cc1sc(NC(=O)Cc2cccc(OCCCCCOc3cccc4c3C(=O)N(C3CCC(=O)NC3=O)C4=O)c2)nc1-c1ccc2c(c1)CCN2C(=O)C1CC1 (stereo not drawn)	300 to 3000 nM	300 to 3000 nM		
Cc1sc(C(=O)NCc2cccc(OCCCCCNc3cccc4c3C(=O)N(C3CCC(=O)NC3=O)C4=O)c2)nc1-c1ccc2c(c1)CCN2C(=O)C1CC1 (stereo not drawn)	< 300 nM	< 300 nM	0.15 µM	
Cc1sc(NC(=O)Cc2cccc(OCCCCCCCNc3cccc4c3C(=O)N(C3CCC(=O)NC3=O)C4=O)c2)nc1-c1ccc2c(c1)CCN2C(=O)C1CC1 (stereo not drawn)	> 3000 nM	300 to 3000 nM	> 30 µM	
Cc1sc(NC(=O)Cc2cccc(OCCCCCNc3ccc4c(c3)C(=O)N(C3CCC(=O)NC3=O)C4=O)c2)nc1-c1ccc2c(c1)CCN2C(=O)C1CC1 (stereo not drawn)	< 300 nM	< 300 nM	0.7 µM	0.3 µM
